{"source": "patent US5268003A", "about": "(priority 1992, dated 1993)", "key": {"[1]": {"assay": "Differential Scanning Calorimetry (DSC), thermal sensitivity", "type": "physicochemical"}, "[2]": {"conditions": "cited from earlier work"}, "[3]": {"assay": "Peracid stability in a heavy-duty liquid at 40° C.", "conditions": "35% surface-actives, pH 4.5, borax/sorbitol, approximately 2 wt. % peracid"}, "[4]": {"conditions": "corrected to 100% peracid content, error is 5% or less"}}, "data": [{"smiles": "O=C(CCCCCCCCCCC(=O)OO)OO", "values": [{"measurement": "Energy Released (Cal g^-1)", "setting": "[1]; [4]", "result": 366, "unit": "cal/g"}, {"measurement": "Energy Released (Kcal mol^-1)", "setting": "[1]; [4]", "result": 96, "unit": "kcal/mol"}, {"measurement": "Onset of Self-Heating", "setting": "[1]; heated at 5° C./minute from 30° C., sealed pans", "result": 96, "unit": "°C"}, {"measurement": "stability under storage conditions", "setting": "[2]; formulated with 10% surfactant", "result": "good stability"}, {"measurement": "half-life change", "setting": "[2]; surfactant level of the formulation increased to 22%", "result": "decreased dramatically"}, {"measurement": "t1/2 at 40° C.", "setting": "[3]", "result": 120, "unit": "h"}]}]}
